Where “and” joins values, the source holds several entries; their conditions need not be identical. Equal values may be shown once.
Columns and labels:
[1] = Water solubility test (Chinese Pharmacopoeia 2020 method); conditions: pure water, 25°C±2°C, dissolution within 30 minutes
[2] = test system: neuroblastoma (SH-SY5Y) cell; experiment: Oxygen-glucose deprivation/reoxygenation (OGD/R) induced cell injury, CCK-8 cell survival; conditions: mean ± SD
tMCAO rats = experiment: Focal cerebral ischemia tMCAO reperfusion model, cerebral infarct by TTC staining; conditions: for reduction of the cerebral infarct volume: tail vein immediately after reperfusion, 24 hours after ischemia
rats = conditions: cited from earlier work
[3] = oral administration; cited from earlier work
mice = conditions: cited from earlier work

COC1=C(OC)C(=O)C(CCCCCCCCCCOP(=O)([O-])[O-])=C(C)C1=O.[K+].[K+]
Result (water solubility class) [1]: Freely soluble (Means that 1 g (ml) of solute can be dissolved in 1 to less than 10 ml of solvent;)
Cell survival rate (%) ([2]; 0.3 µM, n = 3): 79.78±5.60%
Cell survival rate (%) ([2]; 1 µM, n = 3): 79.36±5.99%
Cell survival rate (%) ([2]; 3 µM, n = 3): 81.86±2.93%

COC1=C(OC)C(=O)C(CCCCCCCCCCOP(=O)(O)O)=C(C)C1=O
reduction of the cerebral infarct volume (tMCAO rats; high-dose group 40 mg/kg, P<0.01 vs Model group): 38.8%
cerebral infarct volume in tMCAO rats (result in words) (tMCAO rats; medium and high doses (20 and 40 mg/kg), P < 0.05 vs. Model group): significantly reduce the cerebral infarct volume
reduction of the cerebral infarct volume (tMCAO rats; medium-dose group 20 mg/kg, P<0.05 vs Model group): 31.1%
Cell survival rate (%) ([2]; 0.3 µM, n = 3, listed as SIPI11527): 78.95±2.82%
Cell survival rate (%) ([2]; 0.3 µM, n = 3, listed as SIPI11528): 78.12±5.20%
Cell survival rate (%) ([2]; 0.3 µM, n = 3, listed as SIPI11529): 81.30±3.20%
Cell survival rate (%) ([2]; 0.3 µM, n = 3, listed as SIPI11530): 78.81±5.78%
Cell survival rate (%) ([2]; 1 µM, n = 3, listed as SIPI11527): 79.22±3.67%
Cell survival rate (%) ([2]; 1 µM, n = 3, listed as SIPI11528): 79.50±3.46%
Cell survival rate (%) ([2]; 1 µM, n = 3, listed as SIPI11529): 89.20±2.56%
Cell survival rate (%) ([2]; 1 µM, n = 3, listed as SIPI11530): 77.70±4.74%
Cell survival rate (%) ([2]; 3 µM, n = 3, listed as SIPI11527): 79.09±3.91%
Cell survival rate (%) ([2]; 3 µM, n = 3, listed as SIPI11528): 79.78±3.12%
Cell survival rate (%) ([2]; 3 µM, n = 3, listed as SIPI11529): 94.46% and 94.46±2.81 %
Cell survival rate (%) ([2]; 3 µM, n = 3, listed as SIPI11530): 78.67±1.97%

COC1=C(OC)C(=O)C(CCCCCCCCCCOP(=O)([O-])[O-])=C(C)C1=O.[Na+].[Na+]
Result (water solubility class) [1]: Freely soluble (Means that 1 g (ml) of solute can be dissolved in 1 to less than 10 ml of solvent;)
Cell survival rate (%) ([2]; 0.3 µM, n = 3): 78.12±6.55%
Cell survival rate (%) ([2]; 1 µM, n = 3): 78.39±5.78%
Cell survival rate (%) ([2]; 3 µM, n = 3): 84.63±2.14%

COC1=C(OC)C(=O)C(CCCCCCCCCCO)=C(C)C1=O
oral LD50 (rats): greater than 10000 mg/kg
dose reaching the systemic blood circulation (bioavailability) [3]: 1%
oral LD50 (mice): greater than 10000 mg/kg
Cell survival rate (%) ([2]; 0.3 µM, n = 3): 79.92±3.12%
Cell survival rate (%) ([2]; 1 µM, n = 3): 87.40±4.72%
Cell survival rate (%) ([2]; 3 µM, n = 3): 95.71±0.87 %

COC1=C(OC)C(=O)C(CCCCCCCCCCOP(=O)(O)O)=C(C)C1=O.N.N
Result (water solubility class) [1]: Freely soluble (Means that 1 g (ml) of solute can be dissolved in 1 to less than 10 ml of solvent;)
Cell survival rate (%) ([2]; 0.3 µM, n = 3): 79.92±1.24%
Cell survival rate (%) ([2]; 1 µM, n = 3): 78.95±6.06%
Cell survival rate (%) ([2]; 3 µM, n = 3): 78.12±1.49%

Source: patent EP4831185A1, “NOVEL IDEBENONE PHOSPHATE, SALT COMPOUND THEREOF, PREPARATION METHOD THEREFOR AND USE THEREOF” (dated 2026)
